Target: T1, dDdS Aβ (1–10)
T1 chain: DAEFRHDSGY
Assay: native MS; IM-MS of oligomers of one Aβ fragment alone; Aβ (1–10) and Aβ (1–16) 600 µM, 10 mM NH4OAc; oligomers of many sizes seen, a printed size is the largest one
Settings: remark: other sources report otherwise

B1: dDdS Aβ (1–10) (peptide)
peptide: DAEFRHDSGY
modifications: here or on the partner: D-aspartic acid and D-serine at the underlined Asp and Ser residues (D1, D7, S8 by the letters); D-aspartic acid and D-serine at the underlined Asp and Ser residues (D1, D7, S8 by the letters)
  stoichiometry N: 12

From PMC6834639
